US20170079966A1, “INHIBITION OF TUMOR CELL INTERACTIONS WITH THE MICROENVIRONMENT RESULTING IN A REDUCTION IN TUMOR GROWTH AND DISEASE PROGRESSION” (Deciphera Pharmaceuticals, LLC, priority 2014, published 2017)

Protein sequences, listed by entry. Tags and fused reporters are not part of them. Residues count along the entry.
UniProt P35968, 20-1356: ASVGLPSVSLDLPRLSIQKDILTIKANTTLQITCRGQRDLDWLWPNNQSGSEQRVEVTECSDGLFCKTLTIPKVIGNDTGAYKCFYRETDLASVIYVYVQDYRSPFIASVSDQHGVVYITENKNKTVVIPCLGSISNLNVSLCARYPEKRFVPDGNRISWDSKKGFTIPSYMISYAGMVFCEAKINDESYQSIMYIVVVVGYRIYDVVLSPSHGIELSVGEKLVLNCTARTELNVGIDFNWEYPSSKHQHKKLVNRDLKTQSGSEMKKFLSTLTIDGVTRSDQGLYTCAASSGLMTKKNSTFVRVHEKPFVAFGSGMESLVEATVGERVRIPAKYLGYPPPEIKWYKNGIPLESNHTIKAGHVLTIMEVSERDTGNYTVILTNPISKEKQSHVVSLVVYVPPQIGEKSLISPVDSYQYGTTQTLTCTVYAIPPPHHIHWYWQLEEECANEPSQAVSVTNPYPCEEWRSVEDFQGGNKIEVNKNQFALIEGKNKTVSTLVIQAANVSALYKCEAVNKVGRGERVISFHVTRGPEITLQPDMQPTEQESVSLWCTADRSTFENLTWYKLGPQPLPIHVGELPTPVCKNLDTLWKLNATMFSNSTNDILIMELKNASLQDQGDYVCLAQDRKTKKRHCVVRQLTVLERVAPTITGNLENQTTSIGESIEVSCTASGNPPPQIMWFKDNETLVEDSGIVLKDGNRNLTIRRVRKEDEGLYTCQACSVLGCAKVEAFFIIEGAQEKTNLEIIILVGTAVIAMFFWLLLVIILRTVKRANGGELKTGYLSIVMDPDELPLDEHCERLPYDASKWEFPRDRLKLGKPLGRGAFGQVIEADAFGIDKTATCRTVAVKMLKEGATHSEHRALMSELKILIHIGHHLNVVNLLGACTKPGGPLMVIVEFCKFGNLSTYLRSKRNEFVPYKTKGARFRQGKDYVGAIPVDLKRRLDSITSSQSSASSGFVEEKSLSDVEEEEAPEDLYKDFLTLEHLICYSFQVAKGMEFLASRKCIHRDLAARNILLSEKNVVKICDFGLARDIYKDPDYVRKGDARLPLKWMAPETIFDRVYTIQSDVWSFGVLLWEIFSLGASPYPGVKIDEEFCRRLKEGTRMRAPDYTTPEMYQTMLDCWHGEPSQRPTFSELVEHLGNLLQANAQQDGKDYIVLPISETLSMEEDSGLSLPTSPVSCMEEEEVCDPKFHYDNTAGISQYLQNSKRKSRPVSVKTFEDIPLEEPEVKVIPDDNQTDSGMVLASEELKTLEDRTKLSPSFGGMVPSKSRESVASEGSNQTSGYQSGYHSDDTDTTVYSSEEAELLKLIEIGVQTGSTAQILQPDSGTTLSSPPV

Assays:
SK-MEL-28 cells = test: HGF-stimulated melanoma proliferation cell assay; format: cell-based; settings: Homo sapiens, complete media, 72 h, read-out: IC50, proliferation of SK-MEL-28, single-agent
Protocol: Compound 1 in DMSO was dispensed into assay plates. SK-MEL-28 cells were added to 96-well plates (2,500 cells/well). Effects on cell proliferation were assessed by incubation of SK-MEL-28 cells in complete media, media containing 50 ng/mL HGF, or media mixed 1:1 with MRC-5 fibroblast-conditioned media. Plates were incubated for 72 h. Viable cells were identified by incubation with the vital dye resazurin and quantitated on a plate reader with excitation at 540 nm and emission at 600 nm.

VEGFR2 = VEGFR2 (Homo sapiens, UniProt P35968); test: cell-based

SMILES: O=C(Nc1cc(Oc2cc(F)c(NC(=O)C3(C(=O)Nc4ccc(F)cc4)CC3)cc2F)ccn1)C1CC1 [Compound 1, N-(4-(2-(cyclopropanecarboxamido)pyridin-4-yloxy)-2,5-difluorophenyl)-N′-(4-fluorophenyl)cyclopropane-1,1-dicarboxamide]
- IC50 (SK-MEL-28 cells): > 10000 nM
- IC50 (VEGFR2): 4.7 nM
